# Laboratory results taken from PubChem BioAssay AID1346984 (Tox21, 2019).
# Only a part is listed here, and it is no random draw. Records with an inconclusive call do not appear. The source made the active and inactive calls. Calls come from the whole dose curve; as a rule, active = well fitted activation curve with a large enough effect in the repeat runs; inconclusive = weak or mixed curves; inactive = no such curve, though single readings can be large or run the other way.
# Target: Nuclear receptor subfamily 1 group I member 2 (Homo sapiens) (UniProt O75469)
# Assay: CYP3A4 induction through human pregnane X receptor (PXR) by small molecules, qHTS assay; note: nearly all actives have a fitted effect of over 40% in size
# Conditions: DPX-2 HepG2 PXR, CYP3A4-luciferin luminescence, 24 h; at 46.1 µM (top of the series) unless noted
# Excerpt: National Center for Advancing Translational Sciences [NCATS]
# NIH Chemical Genomics Center [NCGC]
# U.S. Environmental Protection Agency [EPA]
# National Institutes of Environmental Health Sciences [NIEHS]
# National Toxicology Program [NTP]
# The Pregnane X receptor (PXR), a ligand activated nuclear receptor plays a critical role in the regulation of genes involved in drug metabolism and transporters. Activation of PXR is responsible for unwanted adverse drug reactions. PXR binds xenobiotics and when compounds interact with PXR enhances the expression of CYP3A genes. Identifying the compounds with the potential for PXR activation and CYP3A4 induction can be of importance in improving the efficacy of drugs with less toxicity and avoiding drug-drug interactions.
# DPX-2 (Puracyp, Inc.) cell lines, used for screening against human PXR activation has HepG2 cells co-transfected with a PXR response element and a luciferase construct containing CYP3A4 promoter. Increase in luciferase activity can be used to identify the compounds that cause the induction of CYP3A4.
# DPX-2 cells were dispensed at 2,000 cells per well in 5uL of assay medium into white, solid-bottom 1536-well plates using a Multidrop Combi dispenser (Thermo Scientific). The assay plates were incubated at 37C for 5hr before transferring 23nL of test compounds dissolved in DMSO and positive control via Pintool station (Wako). The assay plates were incubated at 37C for 24hr. After 24hr compound treatment, 1uL of 3uM (final concentration) P450 substrate (P450-Glo CYP3A4 screening system with Luciferin-IPA, Promega) was added by a Flying Reagent Dispenser (FRD, Aurora Discovery). The assay plates were incubated for 3hr at 37C. Then 5ul One-Glo assay reagent (Promega) was added to each plate by an FRD and following 30 min incubation at room temperature, luciferase activity was quantified on a ViewLux plate reader (Perkin Elmer).
# % is set by controls: 0 for no effect and ±100 for the full control effect.
row,SMILES,activation
1,O=[N+]([O-])[O-].[NH4+],inactive: 9.3%
2,CN(C)CCS,inactive: -0.907%
3,O=[N+]([O-])c1cccc([N+](=O)[O-])c1,inactive: -3.35%
4,O=[N+]([O-])OCC(CO[N+](=O)[O-])(CO[N+](=O)[O-])CO[N+](=O)[O-],inactive: -1%
5,C/C1=C2N=C(/C=C3N=C(/C(C)=C4\[N-][C@@](C)([C@@H]5N=C1[C@](C)(CCC(=O)NC[C@@H](C)OP(=O)([O-])O[C@H]1[C@@H](O)[C@@H](n6cnc7cc(C)c(C)cc76)O[C@@H]1CO)[C@H]5CC(N)=O)[C@@](C)(CC(N)=O)[C@@H]4CCC(N)=O)[C@@](C)(CC(N)=O)[C@@H]\3CCC(N)=O)C(C)(C)[C@@H]/2CCC(N)=O.[C-]#N.[Co+3],inactive: -1.97% [at 20.6 µM]
6,OCCSCCO,inactive: -9.94%
7,CC(C)OP(=O)(F)OC(C)C,inactive: -10.2%
